From patent US8846682B2, “Compound suitable for the treatment of synucleopathies” (Neuropore Therapies, Inc., priority 2009, dated 2014)

Tested on: neuronal cells
Conditions: doses ranging from 0.1-10 μM; FIG. 7

CCCCNC(=O)C(Cc1c[nH]c2ccccc12)NC(=O)c1cnc(N2CCNCC2)s1 (stereo not shown) [NPT200-5]
toxic effects on neuronal survival: no toxic effects
